Measurements taken from ChEMBL document CHEMBL2176986, “Selective and potent urea inhibitors of cryptosporidium parvum inosine 5'-monophosphate dehydrogenase” (J Med Chem, 2012).

Tested on: Toxoplasma gondii
Test: Selectivity ratio of EC50 of wild type Toxoplasma gondii to EC50 of Toxoplasma gondii expressing Cryptosporidium parvum IMPDH
In short: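 Selectivity is the EC50 against wild-type RH T. gondii divided by the EC50 against the CpIMPDH-dependent strain. Both were measured by daily YFP fluorescence of parasites on hTERT human foreskin fibroblasts over 6-7 days, with inhibition taken in exponential growth.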

CC(O)c1cccc(C(C)(C)NC(=O)Nc2ccc(Cl)cc2)c1 (stereo not drawn)
Ratio EC50: 20

CC(C)(NC(=O)Nc1ccc(Cl)c(C(N)=O)c1)c1cccc(-c2ccccc2)c1
Ratio EC50: 30

CC(=O)c1cccc(C(C)NC(=O)Nc2ccc(Cl)cc2)c1 (stereo not drawn)
Ratio EC50: 4
